The values that follow are results of earlier work, collected in patent publication US12605432B2, “Combinations for antigen based therapy” (Diamyd Medical AB, priority 2014, dated 2026).

This data set concerns patients with recent-onset type 1 diabetes.

With “abatacept: Fc modified CTLA4 immunoglobulin; fusion protein of extracellular portion of human CTLA4 and heavy chain of human IgG1”, the “patients with peak stimulated C peptide >0.2 nmol/l” value (active arm, 36 months after commencement of treatment, placebo 30%) is 35%. In addition, the “effect in DR3-negative patients” value (in vivo) is on record as “lack of effect”. The “endogenous insulin secretion as measured by stimulated C peptide” value (over the initial 6 months as compared with placebo) is “significantly preserves endogenous insulin secretion”.
